The Kinase Knowledgebase extract (Sharma et al. 2016)

Amino acid sequences for entries named in this document (tags omitted).
UniProt P42336, whole entry, looked up: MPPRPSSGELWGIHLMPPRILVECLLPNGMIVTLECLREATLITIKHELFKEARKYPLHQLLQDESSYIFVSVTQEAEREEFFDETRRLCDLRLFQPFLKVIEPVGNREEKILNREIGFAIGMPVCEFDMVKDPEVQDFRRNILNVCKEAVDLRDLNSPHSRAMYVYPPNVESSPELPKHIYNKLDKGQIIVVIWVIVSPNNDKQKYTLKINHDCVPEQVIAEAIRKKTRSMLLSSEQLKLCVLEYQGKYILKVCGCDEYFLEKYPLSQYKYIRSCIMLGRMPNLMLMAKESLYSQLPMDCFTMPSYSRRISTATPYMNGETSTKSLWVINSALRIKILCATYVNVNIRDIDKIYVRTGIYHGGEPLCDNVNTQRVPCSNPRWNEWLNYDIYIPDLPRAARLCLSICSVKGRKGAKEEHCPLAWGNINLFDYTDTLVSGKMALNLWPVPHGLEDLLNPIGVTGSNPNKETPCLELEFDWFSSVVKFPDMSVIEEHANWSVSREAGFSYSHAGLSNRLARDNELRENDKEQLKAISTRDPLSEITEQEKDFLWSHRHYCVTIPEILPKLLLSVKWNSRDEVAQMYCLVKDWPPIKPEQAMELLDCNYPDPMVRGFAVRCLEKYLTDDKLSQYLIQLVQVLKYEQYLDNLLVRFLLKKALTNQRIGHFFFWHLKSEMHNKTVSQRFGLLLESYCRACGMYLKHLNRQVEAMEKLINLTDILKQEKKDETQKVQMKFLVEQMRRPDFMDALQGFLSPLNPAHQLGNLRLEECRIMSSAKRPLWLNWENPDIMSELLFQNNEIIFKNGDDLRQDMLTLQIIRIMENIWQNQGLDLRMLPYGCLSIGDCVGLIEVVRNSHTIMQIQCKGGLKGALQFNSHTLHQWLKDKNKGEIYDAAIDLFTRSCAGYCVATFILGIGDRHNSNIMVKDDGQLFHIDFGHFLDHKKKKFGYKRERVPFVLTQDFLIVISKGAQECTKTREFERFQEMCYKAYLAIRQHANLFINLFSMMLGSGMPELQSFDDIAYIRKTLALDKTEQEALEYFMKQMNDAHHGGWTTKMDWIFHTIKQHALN

Biological target: PIK3CA (human) (UniProt P42336)
Assay: Inhibition of PIK3CA Kinase Activity (Fluorescence Polarization Format Assay)

IC50 [nM] | SMILES
10 | O=C(Nc1ccncc1)Nc1ccc(-c2nc(N3CCOCC3)c3ccn(CC(F)(F)F)c3n2)cc1
6 | CN(C)C1CCN(C(=O)c2ccc(NC(=O)Nc3ccc(-c4nc(N5CCOCC5)c5ccn(CC(F)(F)F)c5n4)cc3)cc2)CC1
